{"sequences": {"note": "Amino acid sequences for entries named in this document (tags omitted). Residues count along the entry.", "UniProt P03951, 19-387 partner": "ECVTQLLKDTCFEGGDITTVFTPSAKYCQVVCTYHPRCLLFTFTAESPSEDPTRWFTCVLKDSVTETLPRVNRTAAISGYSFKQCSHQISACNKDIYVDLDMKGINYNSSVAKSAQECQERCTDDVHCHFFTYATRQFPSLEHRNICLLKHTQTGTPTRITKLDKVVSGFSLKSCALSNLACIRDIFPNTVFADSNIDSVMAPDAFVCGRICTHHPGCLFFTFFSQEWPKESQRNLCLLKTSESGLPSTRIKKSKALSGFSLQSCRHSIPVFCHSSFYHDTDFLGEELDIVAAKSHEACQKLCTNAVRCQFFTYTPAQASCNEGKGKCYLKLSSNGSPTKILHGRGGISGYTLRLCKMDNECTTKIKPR", "UniProt P03951, 388-625": "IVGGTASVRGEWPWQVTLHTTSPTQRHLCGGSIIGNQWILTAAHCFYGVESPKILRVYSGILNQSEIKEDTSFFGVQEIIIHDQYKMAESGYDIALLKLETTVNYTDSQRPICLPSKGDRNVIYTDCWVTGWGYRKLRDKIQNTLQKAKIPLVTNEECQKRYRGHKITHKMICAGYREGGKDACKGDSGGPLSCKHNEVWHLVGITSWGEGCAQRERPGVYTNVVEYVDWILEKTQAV"}, "source": "patent US8901115B2", "about": "“Cyclic P1 linkers as factor XIa inhibitors” (Bristol-Myers Squibb Company, priority 2011, dated 2014)", "target": "purified human Factor XIa (Homo sapiens (Human), UniProt P03951)", "assay": "Factor XIa enzyme inhibition assay (chromogenic substrate S-2366)", "assay_type": "biochemical", "settings": "substrate S-2366, 50 mM HEPES pH 7.4", "method": "The effectiveness of compounds of the present invention as inhibitors of the coagulation Factors XIa, VIIa, IXa, Xa, XIIa, plasma kallikrein or thrombin, can be determined using a relevant purified serine protease, respectively, and an appropriate synthetic substrate. The rate of hydrolysis of the chromogenic or fluorogenic substrate by the relevant serine protease was measured both in the absence and presence of compounds of the present invention. Assays were conducted at room temperature or at 37° C. […] A decrease in the rate of absorbance or fluorescence change in the presence of inhibitor is indicative of enzyme inhibition. Such methods are known to one skilled in the art. The results of this assay are expressed as the inhibitory constant, Ki.\nValues of Ki were determined by allowing the protease to react with the substrate in the presence of the inhibitor. Reactions were allowed to go for periods of 20-180 minutes (depending on the protease) and the velocities (rate of absorbance or fluorescence change versus time) were measured. The following relationships were used to calculate Ki values: (vo−vs)/vs=I/(Ki(1+S/Km)) for a competitive inhibitor with one binding site; or vs/vo=A+((B−A)/(1+((IC50/(I))^n))); and Ki=IC50/(1+S/Km) for a competitive inhibitor where: […]"}
{"molecule": "COC(=O)Nc1ccc2c(c1)NC(=O)CC/C=C/C[C@H](N1CCN(c3cccc(Cl)c3)C(C)C1=O)c1nc-2c[nH]1", "note": "(single isomer, unassigned) [Example 158]", "values": [{"measurement": "Ki", "result": 984, "unit": "nM"}]}
